Assay results: patent US20140234888A1, “Method for Improved Selection of Therapeutic Agents” (priority 2013, published 2014)
Read-outs that look alike come from different tables or passages of the source.

Key:
[1] = system: blood cell fraction; test: TDR-test in vitro, blood of patient B. (Example 2); format: cell-based, human; conditions: for increase in TDR: after 24 h of incubation
Description: Individual selection of anticancer chemotherapy was based on testing the dynamics of TDR in blood with cytostatics—Etoposide (in single therapeutic doses 80-100-120 mg/m2), Cisplatin (25-50-75-100 mg/m2), Carboplatin (150-300-450 mg/m2), Gemcitabine (800-1000-1200 mg/m2), Navelbine (25-30-35 mg/m2), Doxorubicin (20-30-40 mg/m2), Epidoxorubicin (50-70-90 mg/m2), Mitomycin C (4-6-8 mg/m2).

[2] = intramuscular introduction; cited from earlier work
[3] = system: whole blood; test: TDR-test in vitro, blood of patient G. (Example 1); format: cell-based, human; conditions: 1st hour, dose 2 million IU
[4] = system: whole heparinized blood; conditions: patients with CHC viral genotype 1b; cited from earlier work
[5] = system: chronic hepatitis C (CHC); conditions: CHC patients, cited from earlier work

IL-2: Interleukin-2, immunoactive drug
increase in TDR compared with the control ([1]; after 1 hour of incubation, dose 500 000 IU): 25% | increase in TDR ([1]; dose 500 000 IU): 467%

Laferon: immunocorrective drug, dosed in million IU, intramuscular
bioavailability [2]: 90% | increase in TDR ([1]; dose 2 000000 IU): 287% | TDR increase compared to the control [3]: 30%

Reaferon: russian interferon drug
proportion of patients sensitive in vitro [4]: 16.7% | frequency of complete remission ([5]; after 6 months of individual therapy with interferon drugs alone): 75.9% | frequency of complete remission ([5]; after 12 months of individual therapy with interferon drugs alone): 62%
